Chains of the proteins cited; added tags and fusions are not shown.
UniProt P08173, whole entry: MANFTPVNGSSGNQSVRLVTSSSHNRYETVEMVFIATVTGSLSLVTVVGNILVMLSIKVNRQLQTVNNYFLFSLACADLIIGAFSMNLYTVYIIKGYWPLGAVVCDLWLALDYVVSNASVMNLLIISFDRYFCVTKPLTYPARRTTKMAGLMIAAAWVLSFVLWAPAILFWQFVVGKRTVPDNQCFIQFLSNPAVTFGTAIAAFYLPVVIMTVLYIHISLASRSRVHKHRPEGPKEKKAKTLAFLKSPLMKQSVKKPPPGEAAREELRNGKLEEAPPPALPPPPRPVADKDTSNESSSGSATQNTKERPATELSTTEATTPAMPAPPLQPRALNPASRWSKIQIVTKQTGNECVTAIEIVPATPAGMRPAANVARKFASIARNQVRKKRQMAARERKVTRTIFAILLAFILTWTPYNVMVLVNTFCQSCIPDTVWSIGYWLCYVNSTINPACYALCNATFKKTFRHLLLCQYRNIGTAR

In patent publication EP4810493A1, “HETEROCYCLIC CARBONYL DERIVATIVE MODULATOR, PREPARATION METHOD THEREFOR, AND USE THEREOF” (Shanghai Hansoh Biomedical Co., Ltd., priority 2023, dated 2025):

Molecular target: M4 receptor (Homo sapiens, UniProt P08173)
Assay: Calcium flux (FLIPR) potentiation assay in cells stably expressing M4 receptor
Assay type: cell-based
Conditions: read-out: M4 FLIPR EC50; CHO-K1/M4/Gα15 cells; potentiation of acetylcholine (EC20) calcium flux
From the text: Test example 1. Determination of the effect of the compounds of the present invention on calcium current in cells stably expressing M1-M5 receptors
To detect the potentiating effect of compounds on calcium flux activity in CHO-K1/human M1/3/5 and CHO-K1/Gα15 M2/4 cells.
384-well assay plate, 384-well plate, FLIPR Tip, FLIPR Penta plate reader, Dispendix non-contact nanoliter dispensing system (liquid handling workstation), liquid handler.
Ham's F-12 Nutrient Mix, foetal bovine serum, P/S (Gibco: 15140122), HBSS (Gibco: 14025076), HEPES (Gibco: 15630080), FLIPR calcium 6 assay kit (Molecular Devices: R8190), Probenecid (PBA) (Invitrogen: P36400), Acetylcholine chloride (Sigma: A6625-25G) Complete culture medium: DMEM + 10% FBS + 1X P/S; Cell seeding medium: DMEM + 10% FBS + 1X PS; Assay buffer 1: 1X HBSS + 20 mM HEPES +2.5 mM Probenecid; Assay buffer 2: 1X HBSS + 20 mM HEPES; Cell line: CHO-K1/M1; CHO-K1/M2/Gα15; CHO-K1/M3; CHO-K1/M4/Gα15; CHO-K1/M5. […]
FLIPR Penta was used to read and collect the fluorescence signal value (RFU). The maximum RFU value was used to calculate the percent activation data based on the readings of the Low control (DMSO control group) and High control (ACh EC100) experimental groups {% activation rate = (RFUsample - RFUlow control) / (RFUhigh control - RFUlow control)×100}. […]

In the case of Cc1c2c(c3ncnn3c1C)CN(C(=O)CC1CN(c3cc(OC4CC4)ncc3Cl)C1)C2, the EC50 is reported as 33.9 nM.
